Data taken from PMC10691279.

Biological target: Collagen 1 (UniProt P02452)
Assay: quartz crystal microbalance with dissipation

time constant: 8 s
Substance: full-length recombinant human proteoglycan 4 (rhPRG4) (from UniProt Q92954 25-1404) (natural protein)
